{
  "sequences": {"note": "Chains of the proteins cited; added tags and fusions are not shown.", "UniProt P16473, whole entry": "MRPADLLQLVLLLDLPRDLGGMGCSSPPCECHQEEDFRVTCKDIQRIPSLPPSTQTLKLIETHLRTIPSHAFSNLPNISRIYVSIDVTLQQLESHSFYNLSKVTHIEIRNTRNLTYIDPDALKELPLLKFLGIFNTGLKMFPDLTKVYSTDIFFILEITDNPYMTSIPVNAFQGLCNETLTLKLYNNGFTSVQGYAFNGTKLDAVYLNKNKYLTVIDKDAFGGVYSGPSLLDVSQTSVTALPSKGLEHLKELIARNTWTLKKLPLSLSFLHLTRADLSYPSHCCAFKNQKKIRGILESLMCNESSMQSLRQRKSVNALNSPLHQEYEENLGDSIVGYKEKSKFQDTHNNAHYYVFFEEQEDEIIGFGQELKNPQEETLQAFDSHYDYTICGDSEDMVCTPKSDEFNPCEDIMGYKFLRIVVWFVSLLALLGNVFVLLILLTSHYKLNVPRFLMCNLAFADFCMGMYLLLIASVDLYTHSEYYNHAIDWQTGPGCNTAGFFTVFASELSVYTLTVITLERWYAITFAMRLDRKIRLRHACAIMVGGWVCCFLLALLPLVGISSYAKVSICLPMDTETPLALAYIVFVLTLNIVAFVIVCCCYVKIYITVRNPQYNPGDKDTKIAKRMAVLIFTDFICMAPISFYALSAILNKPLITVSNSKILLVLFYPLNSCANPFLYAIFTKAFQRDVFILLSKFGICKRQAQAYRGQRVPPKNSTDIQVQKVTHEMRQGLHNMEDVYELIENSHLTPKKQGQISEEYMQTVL"},
  "source": "PubChem BioAssay AID504810",
  "about": "(National Center for Advancing Translational Sciences (NCATS), 2011)",
  "note": "The entries are a selection whose mix differs from that of the whole data set. Some results for these compounds are left out of this collection, so the calls shown say nothing about other tests. The source made the active and inactive calls.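 How the source made its calls: active means activity change below a set negative limit, meaning inhibition stronger than a set level (cut at about -70% in these data); inconclusive means activity change between two set negative limits; inactive means the rest.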 On the % scale 0 is the no-effect control and ±100 the full control effect.",
  "data": [
    {"target": "Thyrotropin receptor (Homo sapiens) (UniProt P16473)", "experiment": "Antagonists of the Thyroid Stimulating Hormone Receptor: HTS campaign", "conditions": "TSHR-expressing cells, TSH-stimulated cAMP HTRF, 2 h; at 11.5 µM; hits give low values", "from_the_text": "The thyroid-stimulating hormone receptor (TSHR) is a member of the 7 trans-membrane-spanning receptor (7TMR) family of cell surface receptors. TSHR-mediated hyperthyroidism is important in thyroid pathology. The development of small molecule antagonists of TSHR may lead to therapeutic approaches for TSHR-mediated hyperthyroidism caused by constitutively activating mutations or stimulating auto-antibodies associated with Graves' disease. Graves' disease is the leading cause of hyperthyroidism and is caused by autoantibodies that stimulate TSHR (TsAbs) causing thyroid growth and unregulated overproduction of thyroid hormones and existing treatments have liabilities (agranulocytosis). In addition, TSHRs are known to be expressed in multiple extrathyroidal tissues including bone, brain, kidney, testis, fat and cells of the immune system but the role of the TSHR in these tissues is not clear. Therefore, TSHR antagonists/inverse agonists could be used as probes of extrathyroidal TSHR function. Finally, TSHR inverse agonists, which are a subclass of antagonists that inhibit agonist-independent (or basal or constitutive) TSHR signaling, could be used to inhibit TSH-independent signaling in patients with recurrent or metastatic thyroid cancer who are receiving thyroid hormone to suppress TSH. In collaboration between scientist from the NCGC and the NIDDK, a miniaturized HTRF high-throughput screen was developed. It's a cell based assay, where an anti cAMP antibody contains a fluorescent cryptate tag (excitation 337 nm; emission 620 nm) and the acceptor is cAMP-d2 (excitation 620 nm; emission 665 nm). When antibody and cAMP-d2 interact and are excited by a 337 nm light, a FRET occurs resulting in emission at 665 nm. The assay is competition between cAMP-d2 and cAMP (from the cell lysate). The homogeneous protocol allows for one step dispense after stimulation that is automation friendly. NIH Chemical Genomics Center [NCGC] NIH Molecular Libraries Probe Centers Network [MLPCN] MLPCN Grant: MH090855-01 Assay Submitter (PI): Marvin Gerhengorn\n1. 3ul of 200 TSHR freshly harvested cells/well are dispensed into a 1536 TC-treated white solid bottom plate. 2. Through pintool addition, 23nl of compounds and control in 100% DMSO are added to the plate. 3. Then 1ul of EC80 TSH (4nM final) is added to the plate. 4. Assay is incubated at 37 deg C for 2 hours. 5. 2ul of cAMP antibody diluted 1:20 in lysis buffer is added. 6. Immediately following, 2ul of d2 diluted 1:20 in HBSS is added seperately. 7. The assay is incubated for 30 minutes at ambient room temperature. 8. The result is obtained by using a ViewLux read-out with HTRF settings.", "values": [
      {"smiles": "COc1ccc(Br)c(C(=O)NCC2(N3CCCCC3)CCCCC2)c1", "activity change, negative = inhibition": "inactive: 19%"},
      {"smiles": "CC(C)Oc1ccc(C(=O)NCC2(N(C)C)CCCCC2)cc1", "activity change, negative = inhibition": "inactive: 5.01%"},
      {"smiles": "CN(C)c1cccc(C(=O)NCC2(N(C)C)CCCCC2)c1", "activity change, negative = inhibition": "inactive: -10.7%"},
      {"smiles": "O=C(OC1CN2CCC1CC2)C(CO)(c1ccccc1)c1ccccc1", "note": "(centres undefined)", "activity change, negative = inhibition": "inactive: 11.1%"},
      {"smiles": "COc1ccc(Cl)cc1C(=O)NCC1(N(C)C)CCCCC1", "activity change, negative = inhibition": "inactive: 4.8%"},
      {"smiles": "COc1cccc(C(=O)NCC2(N3CCCCC3)CCCCC2)c1", "activity change, negative = inhibition": "inactive: 3.98%"},
      {"smiles": "O=C(NCC1(N2CCCCC2)CCCCC1)c1cccc(Cl)c1", "activity change, negative = inhibition": "inactive: 9.92%"},
      {"smiles": "CN(C)C1(CNC(=O)c2ccc(Br)cc2)CCCCC1", "activity change, negative = inhibition": "inactive: 4.55%"},
      {"smiles": "COc1cc(C(=O)NCC2(N(C)C)CCCCC2)c([N+](=O)[O-])cc1OC", "activity change, negative = inhibition": "inactive: 15%"},
      {"smiles": "O=C(NCC1(N2CCCCC2)CCCCC1)c1cc(F)c(F)cc1Cl", "activity change, negative = inhibition": "inactive: -2.74%"},
      {"smiles": "C=CCN1CCN(CCOC(=O)C(O)(c2ccccc2)c2ccccc2)CC1", "activity change, negative = inhibition": "inactive: 19.4%"},
      {"smiles": "COc1ccc(C(=O)NCC2(N(C)C)CCCCC2)cc1", "activity change, negative = inhibition": "inactive: 8.42%"},
      {"smiles": "O=C(NCC1(N2CCCCC2)CCCCC1)c1cccc(Br)c1", "activity change, negative = inhibition": "inactive: 9.51%"},
      {"smiles": "Cc1cc(C(=O)NCC2(N3CCCCC3)CCCCC2)ccc1[N+](=O)[O-]", "activity change, negative = inhibition": "inactive: 14.8%"},
      {"smiles": "CCN1CCCC(OC(=O)C2(O)c3ccccc3C=Cc3ccccc32)C1", "note": "(centres undefined)", "activity change, negative = inhibition": "inactive: -5.04%"},
      {"smiles": "CN(C)C1CCCC1OC(=O)C(O)(c1ccccc1)c1ccccc1", "note": "(centres undefined)", "activity change, negative = inhibition": "inactive: 5.43%"},
      {"smiles": "CN(C)c1ccc(C(=O)NCC2(N(C)C)CCCCC2)cc1", "activity change, negative = inhibition": "inactive: -7.92%"},
      {"smiles": "Cc1ccccc1C(=O)NCC1(N2CCCCC2)CCCCC1", "activity change, negative = inhibition": "inactive: 9.57%"},
      {"smiles": "COc1cc(SC)ccc1C(=O)NCC1(N(C)C)CCCCC1", "activity change, negative = inhibition": "inactive: -5.29%"},
      {"smiles": "CCN(CC)CC(C)C(C)OC(=O)C(O)(c1ccccc1)c1ccccc1", "note": "(centres undefined)", "activity change, negative = inhibition": "inactive: -6.25%"},
      {"smiles": "CC(C)N1C(=O)CC2(CCN(CCOC(=O)C(O)(c3ccccc3)c3ccccc3)CC2)C1=O", "activity change, negative = inhibition": "inactive: 38.2%"},
      {"smiles": "Cc1ccc(C(=O)NCC2(N3CCCCC3)CCCCC2)cc1", "activity change, negative = inhibition": "inactive: 8.15%"},
      {"smiles": "O=C(NCC1(N2CCCCC2)CCCCC1)c1cc([N+](=O)[O-])ccc1Cl", "activity change, negative = inhibition": "inactive: 6.17%"},
      {"smiles": "CN1[C@@H]2CC[C@H]1CC(OC(=O)C(O)(c1ccccc1)c1ccccc1)C2", "note": "(some centres undefined)", "activity change, negative = inhibition": "inactive: -10.4%"}
    ]}
  ]
}
